For 1 compound, IC50 results are on record in patent publication US20070141619A1, “DRUG RESISTANCE-ASSOCIATED GENE AND USE THEREOF” (BANYU PHARMACEUTICAL CO., Ltd., priority 2000, published 2007).

One may read the IC50 as the concentration at which inhibition is half-maximal. Read a high IC50 as a need for much substance.

The assay has as its system HCT116/NR1. Description: SRB drug sensitivity, Compound-A-resistant HCT116/NR1. The format is cell-based. The settings on record: Homo sapiens, HCT-116, 72 hours with agent. The source says: An emerging colony was isolated and designated as HCT116/NR1.

In turn, `CC[C@@]1(O)C(=O)OCc2c1cc1n(c2=O)Cc2cc3c(CN(C)C)c(O)ccc3nc2-1` [Topotecan] came in with an IC50 of 0.14 µM.
